The record followed here is ChEMBL document CHEMBL6182920, “The Discovery of C7-Substituted Norbornyl Bisamides as RXFP1 Small Molecule Agonists” (J Med Chem, 2025).

By Emax is commonly meant the size of the effect at its maximum, as opposed to the concentration needed.

The experiment concerns the target T1, Relaxin receptor 1 (Homo sapiens) (UniProt Q9HBX9).
T1 sequence (whole entry): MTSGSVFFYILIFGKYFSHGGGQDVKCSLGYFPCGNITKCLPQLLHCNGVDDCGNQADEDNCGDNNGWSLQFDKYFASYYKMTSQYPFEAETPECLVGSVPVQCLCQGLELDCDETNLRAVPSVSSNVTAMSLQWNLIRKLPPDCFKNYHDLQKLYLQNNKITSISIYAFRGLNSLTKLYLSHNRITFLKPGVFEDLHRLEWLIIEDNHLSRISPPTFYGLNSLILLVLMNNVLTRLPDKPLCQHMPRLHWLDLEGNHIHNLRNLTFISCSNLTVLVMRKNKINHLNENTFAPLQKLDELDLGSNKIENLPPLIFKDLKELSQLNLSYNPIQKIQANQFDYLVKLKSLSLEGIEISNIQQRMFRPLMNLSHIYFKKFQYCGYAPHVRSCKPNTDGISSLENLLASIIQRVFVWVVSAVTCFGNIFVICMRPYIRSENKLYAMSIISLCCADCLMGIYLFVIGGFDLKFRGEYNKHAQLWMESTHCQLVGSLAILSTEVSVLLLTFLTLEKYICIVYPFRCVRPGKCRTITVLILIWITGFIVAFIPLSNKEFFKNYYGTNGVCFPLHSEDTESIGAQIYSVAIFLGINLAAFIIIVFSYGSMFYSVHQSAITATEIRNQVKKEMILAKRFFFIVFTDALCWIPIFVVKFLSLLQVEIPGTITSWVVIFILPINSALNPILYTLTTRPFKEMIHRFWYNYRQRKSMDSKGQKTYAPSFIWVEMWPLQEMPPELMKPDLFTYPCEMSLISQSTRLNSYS
The experiment can be described thus: Agonist activity at human RXFP1 assessed as maximal efficacy relative to relaxin. Type of experiment: functional. The settings on record: filed as agonist.

Each structure is given as a SMILES string.

For the compound `CC(C)Oc1ccccc1C(=O)Nc1ccccc1C(=O)Nc1cccc(S(=O)(=O)C(F)(F)F)c1`, the maximal response (Emax) was 65%.

With `COc1cc(F)c(F)cc1C(=O)Nc1ccccc1C(=O)Nc1ccc(F)c(C(F)(F)F)c1`, the Emax was 100%.
